This excerpt belongs to a sample that is enriched for hits.
GIV-Gai inh – blocks GIV peptide binding to rat Galpha-i3; Galpha-i3/FITC-GIV peptide fluorescence polarization, 90 min; stronger effect = lower value; scaled: aluminum fluoride 0%, vehicle 100%; P08753; hit rate 0.42% among 210,000; AID 1224905; percent of control (FP), % (test concentration not listed);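 active = replicate mean at 85% of control or lower, very high polarization wells dropped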;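 also: wells of about 15 µL received 100 nL stock; the first replicate is given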
HCMV NEC inh – disrupts HCMV UL50-UL53 complex binding; HTRF UL50-UL53 interaction, normalized percent inhibition; inhibition, % (no concentration beside the values); 190,000 compounds, 0.15% hits; in the data active = inhibition above about 27%, passing the limit was not always enough
GIV Gai FP conf – GIV-Galpha-i3 inhibition, FP confirmation; FITC-GIV peptide binding to Galphai3, fluorescence polarization; stronger effect = lower value; AID 1259350; shares compounds with GIV-Gai inh; 580 compounds, 38% hits; fluorescence polarization, mP at 100 µM;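 active = inhibition score of 15 or more, meaning 100 minus mean polarization as percent of control over three replicates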
GIV Gai AS conf – GIV-Galpha-i3 inhibition, AlphaScreen confirmation. 580 compounds, 39% hits. shares compounds with GIV-Gai inh. AlphaScreen Galphai3-GIV binding, purified proteins, 90 min; stronger effect = lower value. AlphaScreen counts at 100 µM. AID 1259351;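 active = inhibition score at or above a set limit, where the score is 100 minus the three-replicate mean percent of control signal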
* = called active by the depositor; / = not tested or not shown.

SMILES	GIV-Gai inh	HCMV NEC inh	GIV Gai FP conf	GIV Gai AS conf
O=C(O)C1=CC(=C(c2ccc(O)c(C(=O)O)c2)c2ccc(O)c(C(=O)O)c2)C=CC1=O	-19*	123*	17*	2586*
Nc1ccc(O)c(C(=O)O)c1	91	-68	/	/
O=S(=O)(c1ccc(Cl)cc1)N1CCC2(CC1)Nc1cc(F)ccc1-n1cccc12	97	-4	/	/
Oc1ccc(NCc2cccs2)cc1	104	-10	/	/
Cc1ccc(CNc2ccc(O)cc2)s1	75*	21	50*	9116*
COc1ccc(OC)c(NC(=O)c2cccc(N3CCCS3(=O)=O)c2)c1	110	7	/	/
O=c1cc(Cn2nc3c(-c4nc(-c5ccccc5)no4)cccn3c2=O)nc2ccccn12	90	/	42*	27964
CCOC(=O)Cn1nc2c(-c3nc(-c4ccc(Cl)cc4)no3)cccn2c1=O	106	/	/	/
O=C1Oc2ccccc2C2c3sc(=O)[nH]c3SC(c3ccccc3)C12 (stereo not drawn)	112	7	/	/
O=c1[nH]c2c(s1)C1c3ccccc3OC3CCCC(S2)C31 (stereo not drawn)	72*	-142	40*	30587

Reprinted from the part before: 5 entries; new compounds follow.
SMILES	GIV-Gai inh	HCMV NEC inh	GIV Gai FP conf	GIV Gai AS conf
COc1ccc(OC)c(NC(=O)c2cccc(N3CCCS3(=O)=O)c2)c1	110	7	/	/
O=c1cc(Cn2nc3c(-c4nc(-c5ccccc5)no4)cccn3c2=O)nc2ccccn12	90	/	42*	27964
CCOC(=O)Cn1nc2c(-c3nc(-c4ccc(Cl)cc4)no3)cccn2c1=O	106	/	/	/
O=C1Oc2ccccc2C2c3sc(=O)[nH]c3SC(c3ccccc3)C12 (stereo not drawn)	112	7	/	/
O=c1[nH]c2c(s1)C1c3ccccc3OC3CCCC(S2)C31 (stereo not drawn)	72*	-142	40*	30587
COc1ccc(-c2nc(C=C3C(=O)c4ccccc4C3=O)c3ccccn23)cc1	242	/	/	/
Cc1ccc(S(=O)(=O)NCc2c(C)nn(C)c2C)cc1	106	-30	/	/
COC(=O)c1ccc(NC(=O)c2nn(C)c3c2CS(=O)(=O)c2ccccc2-3)cc1	86	-16	83	37898
Cn1nc(C(=O)Nc2ccc(F)cc2)c2c1-c1ccccc1S(=O)(=O)C2	104	0	/	/
O=C(NC1CCCC1)c1ccc2c(=O)n(CC3CCCO3)c(SCc3cccc(Cl)c3)nc2c1 (stereo not drawn)	104	/	/	/
CCCCSc1nnc2c(n1)OC(c1cccs1)Nc1ccccc1-2 (stereo not drawn)	108	-24	/	/
CCCCSc1nnc2c(n1)OC(c1ccc(Br)s1)Nc1ccccc1-2 (stereo not drawn)	40*	-17	89	19457
O=C(NCC1CCCO1)c1cc2c(s1)-c1ccsc1CC2 (stereo not drawn)	107	-26	/	/
CC(C)CSC1=NSC2=NC(=O)/C(=C\c3ccc(SCc4ccco4)o3)C(=N)N12	178	-17	/	/
O=C(CSc1nnc2c(n1)CCCC2)c1ccc(N2CCCC2=O)cc1	66*	26	53*	2430*

Next section.
SMILES	GIV-Gai inh	HCMV NEC inh	GIV Gai FP conf	GIV Gai AS conf
O=C(CSc1nnc(-c2ccccn2)c(-c2ccccn2)n1)c1ccc(N2CCCC2=O)cc1	107	-44	/	/
CCSc1nc2ccc(NS(=O)(=O)c3ccc(F)cc3Cl)cc2s1	102	/	/	/
CCNc1cc(C)nc(Nc2ccc(NS(=O)(=O)c3ccc(OC)c(OC)c3)cc2)n1	102	/	/	/
O=C(O)c1cccc(NC(=O)c2ccccc2C(=O)O)c1	100	-13	/	/
O=C(O)c1ccc(C(=O)Nc2cccc(Cl)c2)c(C(=O)O)c1	64*	-40	62*	34772
CCc1onc(C)c1C1CCCN1S(=O)(=O)c1ccc(Br)s1 (stereo not drawn)	103	/	/	/
COc1ccc(-c2cc3n(n2)CCC(=O)N3CC(=O)N2CCOCC2)cc1	112	-11	/	/
CCOC(=O)c1cc2c(=O)n3ccccc3nc2n(C2CCCCC2)c1=N	107	-35	/	/
N=c1c(C(N)=O)cc2c(=O)n3ccccc3nc2n1C1CCCC1	90	-125	70	36264
Cc1onc(-c2ccccc2)c1C(=O)OCC(=O)N(C)Cc1cccs1	/	-16	/	/

Next results follow:
SMILES	GIV-Gai inh	HCMV NEC inh	GIV Gai FP conf	GIV Gai AS conf
COc1nonc1NC(C)=O	/	3	/	/
CC(=O)NC1=CC(=O)c2nonc2C1=O	4.4*	86*	26*	7791*
CCc1cccc2c(C#N)cn(CC(=O)NC3CCCC3)c12	/	-12	/	/
CC1(C)CN(CC(=O)N2CCCC2)c2ccc(S(=O)(=O)N3CCOCC3)cc21	102	/	/	/
COCCCN1CCc2nc(SCc3ccc(F)cc3Cl)[nH]c(=O)c2C1	97	/	/	/
Oc1ccccc1C=Nc1cccc(N=Cc2ccccc2O)c1	100	/	/	/
Oc1sc(-c2ccccc2)cc1C=Nc1ccccc1	84*	/	74	45653
CC(=O)Oc1ccc(/C=C2\N=C(c3ccc(C(C)(C)C)cc3)OC2=O)cc1OC(C)=O	123	/	/	/
CC(=O)ON=C1CC(C)(C)NC(C)(C)C1	105	-18	/	/
O=C(Nc1ccccc1C(=O)NCC1CCCO1)C1=CSCCO1 (stereo not drawn)	101	-29	/	/

The results go on.
SMILES	GIV-Gai inh	HCMV NEC inh	GIV Gai FP conf	GIV Gai AS conf
CCOC(=O)c1ccccc1NC(=O)/C(C#N)=C/c1ccc(-c2ccc(Cl)cc2)o1	76*	-19	31*	11443*
Cc1ccc(NC(=O)/C(C#N)=C\c2ccc(-c3ccc(Cl)cc3)o2)c(C)c1	106	-51	/	/
N#C/C(=C\c1ccc(-c2cc(Cl)ccc2Cl)o1)C(=O)Nc1ccccc1C(=O)O	113	-74	/	/
N#C/C(=C/c1ccc(-c2ccc(S(N)(=O)=O)cc2)o1)C(=O)Nc1cc(Cl)ccc1Cl	75*	-15	80	30693
N#Cc1c(N)n(-c2cccc(C(F)(F)F)c2)c2nc3ccccc3nc12	/	-25	/	/
Cc1c(Nc2nc3nonc3nc2Nc2ccccc2F)c(=O)n(-c2ccccc2)n1C	126	-7	68	44712
Cc1c(Nc2nc3nonc3nc2Nc2ccc(F)cc2)c(=O)n(-c2ccccc2)n1C	106	/	/	/
CC(C)C(C(=O)O)N1C(=O)/C(=C/c2ccccc2)SC1=S (stereo not drawn)	/	-72	/	/
O=C(O)C(c1ccccc1)N1C(=O)/C(=C/c2ccncc2)SC1=S (stereo not drawn)	80*	/	76	50305
CC(NC(=O)C(O)(c1ccccc1)c1ccccc1)C(=O)O (stereo not drawn)	106	/	/	/

(continued)
SMILES	GIV-Gai inh	HCMV NEC inh	GIV Gai FP conf	GIV Gai AS conf
O=C1C(Sc2ccccc2)=C/C(=N/S(=O)(=O)c2cccs2)c2ccccc21	95	/	/	/
Cc1ccc(S(=O)(=O)/N=C2\C=C(Sc3ncn[nH]3)C(=O)c3ccccc32)cc1	83*	45	54*	4566*
Cc1ccc(Nc2nc(Nc3ccc(C)cc3)nc(Sc3ncn[nH]3)n2)cc1	/	-19	/	/
CC(C)c1ccc(S(=O)(=O)/N=C2/C=C(Sc3ncn[nH]3)C(=O)c3ccccc32)cc1	13*	/	26*	3681*
Cc1ccc(S(=O)(=O)/N=C2/C=C(Sc3ncn[nH]3)C(=O)c3ccccc32)cc1	5.9*	32	16*	6564*
Cc1ccc(S(=O)(=O)Nc2ccc(O)c(Sc3ncn[nH]3)c2)cc1	100	-27	/	/
Nc1ccc2c(c1)OC1(O)c3ccccc3C(=O)C21O (stereo not drawn)	/	-20	/	/
O=C1CCCC2=C1C1(O)C(=O)c3ccccc3C1(O)O2 (stereo not drawn)	59*	78*	54*	53411
CCOC(=O)COc1ccc2c(C#N)c3ccccn3c2c1	43*	-25	64	44204
N#Cc1c2ccc(OCC(N)=O)cc2n2ccccc12	103	-17	/	/

The list continues:
SMILES	GIV-Gai inh	HCMV NEC inh	GIV Gai FP conf	GIV Gai AS conf
CCCc1cc(C(=O)N/N=C/c2cnn(C)c2)sc1C	/	-31	/	/
CCOC(=O)CNC(=O)CSc1nnc(Cc2cccn2C)n1-c1ccc(F)cc1	100	-15	/	/
COC(=O)c1cc(C(=O)Nc2ccc(C)cc2)c(=O)[nH]c1C	105	4	/	/
COC(=O)c1cc(C(=O)Nc2ccc(Cl)cc2)c(=O)[nH]c1C	106	-13	81	29055

One compound at a time, as listed above. Screens in order: GIV-Gai inh	HCMV NEC inh	GIV Gai FP conf	GIV Gai AS conf
Entry for `O=C(CSc1nnc(-c2ccccn2)c(-c2ccccn2)n1)c1ccc(N2CCCC2=O)cc1` = 107	-44	/	/
Entry for `COc1ccc(-c2nc(C=C3C(=O)c4ccccc4C3=O)c3ccccn23)cc1` = 242	/	/	/

Source: PubChem (ICCB-Longwood Screening Facility, Harvard Medical School)
